# Apparent affinities of Ab-14 variants for a coronavirus HR2 peptide

Antigen: PDVDLGDISGINAS, a 14-residue peptide of the SARS-CoV-2 spike HR2 region.

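The parent was found by panning a naive human phage display library on the peptide. Designed CDR sequences, proposed from the first random library and measured here. Several design methods are mixed in this list. In AlphaSeq, yeast of one mating type display the scFv and yeast of the other type display the target. Pairs that bind mate more often; barcode pairs of the diploids are counted by sequencing. The ratio of observed to expected reads was calibrated, replicate by replicate, on BCL2-family standards whose Kd was known from biolayer interferometry. Mating was done six times.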

Each scFv is VH, three GGGGS repeats, VL, as in the parent Ab-14, and differs from it in the CDRs of the heavy chain only.
VH: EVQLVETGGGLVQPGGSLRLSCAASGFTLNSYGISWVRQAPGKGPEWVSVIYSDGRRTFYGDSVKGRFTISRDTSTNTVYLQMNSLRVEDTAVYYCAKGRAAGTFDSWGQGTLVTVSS
VL: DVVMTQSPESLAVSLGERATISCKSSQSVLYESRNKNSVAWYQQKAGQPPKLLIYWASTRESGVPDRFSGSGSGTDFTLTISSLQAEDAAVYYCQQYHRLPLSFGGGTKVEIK

Sequences are complete VH domains. This list holds designs with more than six substitutions. Each Kd is an estimate from the mating assay, the geometric mean of the replicates in which the pair was seen; lower is stronger. Where no diploid with the target was found in any replicate, the entry reads "nd": below detection, most likely a poor binder, though not proof of it.

Variant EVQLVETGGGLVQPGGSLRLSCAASGFDLNEYGISWVRQAPGKGPEWVSVIYADGMRTAYADSVKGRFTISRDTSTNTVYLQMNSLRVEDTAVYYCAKGGVAGTFDVWGQGTLVTVSS showed 82 pM (6 of 6 replicates).
Variant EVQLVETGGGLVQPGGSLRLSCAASGFDLNEYGISWVRQAPGKGPEWVSVIYADGMRTSYIDSVKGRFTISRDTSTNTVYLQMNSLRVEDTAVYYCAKGNQAGTFDVWGQGTLVTVSS showed 360 pM (6 of 6 replicates).
Variant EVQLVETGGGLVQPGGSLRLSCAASGFDLNEYGISWVRQAPGKGPEWVSVIYADGRRTFYTDNVKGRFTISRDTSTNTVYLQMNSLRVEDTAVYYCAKGQNAGTFDAWGQGTLVTVSS showed 180 pM (5 of 6 replicates).
Variant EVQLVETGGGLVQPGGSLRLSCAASGFSLDEYGISWVRQAPGKGPEWVSVIYADGRRTFYADSVKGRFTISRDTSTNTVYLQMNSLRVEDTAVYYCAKGNSAGTFDVWGQGTLVTVSS showed 430 pM (6 of 6 replicates).
Variant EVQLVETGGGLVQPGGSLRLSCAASGFDLDEYGISWVRQAPGKGPEWVSVIYADGKRTFYADSVKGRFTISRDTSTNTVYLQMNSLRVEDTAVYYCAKGEVAGTFDVWGQGTLVTVSS showed 490 pM (6 of 6 replicates).
Variant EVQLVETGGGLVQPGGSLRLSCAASGFDLDKYGISWVRQAPGKGPEWVSVIYADGMRKSYADAVKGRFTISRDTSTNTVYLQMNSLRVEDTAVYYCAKGRLSGTFYIWGQGTLVTVSS showed 320 pM (3 of 6 replicates).
Variant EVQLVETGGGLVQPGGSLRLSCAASGFDINEYGISWVRQAPGKGPEWVSVIYADGMRTKYSESVKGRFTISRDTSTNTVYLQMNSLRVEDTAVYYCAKGTGDGSFNLWGQGTLVTVSS showed nd (0 of 6 replicates).
Variant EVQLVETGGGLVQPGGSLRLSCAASGFDLNEYGISWVRQAPGKGPEWVSVIYADGMRTVYADSVKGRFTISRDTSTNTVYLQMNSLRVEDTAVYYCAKGNVAGTFDQWGQGTLVTVSS showed 2.0 nM (6 of 6 replicates).
Variant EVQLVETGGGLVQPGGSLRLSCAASGFKLDEYGISWVRQAPGKGPEWVSVIYADGSRTEYVQSVKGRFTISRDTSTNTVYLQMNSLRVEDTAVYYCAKGDTTVIKFVWGQGTLVTVSS showed nd (0 of 6 replicates).
Variant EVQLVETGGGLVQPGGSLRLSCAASGFDLDEYGISWVRQAPGKGPEWVSVIYADGMRTFYSDSVKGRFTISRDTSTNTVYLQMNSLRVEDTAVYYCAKGEAAGTFDAWGQGTLVTVSS showed 300 pM (6 of 6 replicates).
Variant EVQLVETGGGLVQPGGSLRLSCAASGFDLNEYGISWVRQAPGKGPEWVSVIYADGRRTFYTDSVKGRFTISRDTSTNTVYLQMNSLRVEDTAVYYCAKGEIAGTFDVWGQGTLVTVSS showed 180 pM (6 of 6 replicates).
Variant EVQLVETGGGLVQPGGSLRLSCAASGYDIDEYGISWVRQAPGKGPEWVSVIYADGQRTSYQQSVKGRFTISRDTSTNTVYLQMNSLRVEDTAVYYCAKGAGDITGLVWGQGTLVTVSS showed nd (0 of 6 replicates).
Variant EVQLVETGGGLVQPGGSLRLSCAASGFDLNEYGISWVRQAPGKGPEWVSVIYADGMRKAYSDSVKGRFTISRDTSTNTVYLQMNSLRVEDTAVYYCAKGNNAGTFDVWGQGTLVTVSS showed 220 pM (6 of 6 replicates).
Variant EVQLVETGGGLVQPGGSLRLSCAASGFDLESYGISWVRQAPGKGPEWVSVIYADGQRTFYADKVKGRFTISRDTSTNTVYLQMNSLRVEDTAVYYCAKGENAGTFDIWGQGTLVTVSS showed 360 pM (6 of 6 replicates).
Variant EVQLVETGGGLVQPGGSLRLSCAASGFDLNEYGISWVRQAPGKGPEWVSVIYADGVRKYYADSVKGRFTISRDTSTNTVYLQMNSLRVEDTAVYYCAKGNVAGTFDVWGQGTLVTVSS showed 190 pM (6 of 6 replicates).
Variant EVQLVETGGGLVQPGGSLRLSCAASGFDLNEYGISWVRQAPGKGPEWVSVIYADGVRTYYADSVKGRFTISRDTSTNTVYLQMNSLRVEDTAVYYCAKGENAGTFDLWGQGTLVTVSS showed 3.4 nM (4 of 6 replicates).
Variant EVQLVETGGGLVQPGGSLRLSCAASGFDLNEYGISWVRQAPGKGPEWVSVIYADGRRTFYADSVKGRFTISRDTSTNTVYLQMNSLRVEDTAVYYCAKGNTAGTFIIWGQGTLVTVSS showed 3.6 nM (6 of 6 replicates).
Variant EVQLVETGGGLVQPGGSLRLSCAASGFDLDEYGISWVRQAPGKGPEWVSVIYADGMRTFYADSVKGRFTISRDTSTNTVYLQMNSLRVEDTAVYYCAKGELAGTFFSWGQGTLVTVSS showed 440 pM (6 of 6 replicates).

Excerpt, the final 2 entries:

Variant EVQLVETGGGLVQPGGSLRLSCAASGFDLNEYGISWVRQAPGKGPEWVSVIYADGRRTFYADSVKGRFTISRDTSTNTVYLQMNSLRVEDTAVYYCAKGNTAGTFIIWGQGTLVTVSS gave 3.6 nM (6 of 6 replicates).
Variant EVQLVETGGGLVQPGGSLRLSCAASGFDLDEYGISWVRQAPGKGPEWVSVIYADGMRTFYADSVKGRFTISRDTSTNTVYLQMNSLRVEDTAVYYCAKGELAGTFFSWGQGTLVTVSS gave 440 pM (6 of 6 replicates).

In the paper, a design with two or fewer of six values counts as a poor binder. Three control strains display no target. For all heavy chain designs, 1% of the pairings with them gave a signal, with a median of 120 nM and one signal in twenty below 7.0 nM, so weak values seen in few replicates may be background. The range of this assay differs from that of the first round, and the authors advise against merging the two.

Data: MIT Lincoln Laboratory AlphaSeq set, Li et al. 2023, doi:10.1038/s41467-023-39022-2, as distributed in FLAb.